## Reported properties for industrial, environmental and drug-like chemicals

Data: OPERA 2.9 data sets, kmansouri/OPERA on GitHub.

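These are experimental values that the OPERA curators gathered from public databases to train and test their QSAR models. A listed value is a point estimate from one report or more. Method, purity and exact conditions of the single measurements are not given. A value may pool stereoisomers or salt forms, and the file does not say which form was measured. Some upstream entries may be estimates or bounds without being marked so.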

The melting point is given in degrees Celsius. The boiling point refers to atmospheric pressure (760 mmHg), by the definition of the set. The octanol-water partition coefficient is given as log10; larger values mean a more lipophilic compound. Water solubility is log10 of mol/L, nominally at 25 °C; higher is more soluble. Vapor pressures (log10 mmHg) refer to near room temperature, 15 to 30 °C; higher is more volatile. The unbound fraction in human plasma runs from 0 (all bound) to 1 (all free). Intrinsic clearance (human, µL/min per 10^6 hepatocytes): higher is faster turnover, and 0 stands for none detected. "n/a" marks a cell with nothing listed here.

Listed for OCC(Br)=C(Br)CO: log Kow 0.31 and vapor pressure -4.288 (log10 mmHg). The entry for COCCOCCOCCOCCO lists MP -39 °C and log Kow -0.86 and vapor pressure -0.974 (log10 mmHg). CCCCCCC(O)CO (stereo not given) is reported with log Kow 2.1 and vapor pressure -2.813 (log10 mmHg). For CCN1CCCCCC1=O the data give MP -19 °C and vapor pressure -1.295 (log10 mmHg). For Nc1c(I)c(C(=O)O)c(I)c(C(=O)NCC(O)CO)c1I (stereo not given) the data give MP 163.7 °C and log Kow -3.7. CC(=O)Nc1ccc(I)cc1 has MP 184 °C and log S -3.25 (log10 mol/L). CC(=CCC1CC=C(C)C1(C)C)CO (stereo in doubt) is reported with log Kow 4.191 and log S -3.515 (log10 mol/L) and vapor pressure -2.995 (log10 mmHg).

The entry for O=C(O)COc1ccc(Cl)c2cccnc12 lists MP 216.8 °C and log Kow 0.086 and log S -1.882 (log10 mol/L) and vapor pressure -9.215 (log10 mmHg). Listed for CC1CCC(C(C)C)C(OCC(O)CO)C1 (stereo not given): MP -19.7 °C and log Kow 3.5 and log S -2.006 (log10 mol/L). For CC(C)CCCCCCCCCCCCCCC(=O)OCC(COC(=O)CCCCCCCCCCCCCCC(C)C)(COC(=O)CCCCCCCCCCCCCCC(C)C)COC(=O)CCCCCCCCCCCCCCC(C)C the data give MP -29 °C and log S -7.381 (log10 mol/L). The entry for CC(CC=O)c1ccccc1 (stereo not given) lists log Kow 1.9 and log S -1.87 (log10 mol/L) and vapor pressure -0.634 (log10 mmHg). CCCCC(CC)COCC(O)COc1ccc(-c2nc(-c3ccc(C)cc3C)nc(-c3ccc(C)cc3C)n2)c(O)c1 (stereo not given) is reported with MP 76.55 °C and log Kow 9.63 and vapor pressure -11.89 (log10 mmHg). Listed for CC(C)CCC(C)C(C)O (stereo not given): bp 186 °C and log Kow 3.47 and log S -2.413 (log10 mol/L) and vapor pressure -0.326 (log10 mmHg). For CC(=O)c1cc[n+](C)cc1.Cc1ccc(S(=O)(=O)[O-])cc1 the data give MP 164 °C and log Kow -2.547.

Cc1ccc(NCCO)c([N+](=O)[O-])c1 has log Kow 2.1 and log S -2.747 (log10 mol/L) and vapor pressure -5.673 (log10 mmHg). CCCCCCOC(=O)CCCCC(=O)OCCCCCC has MP -15.5 °C and log S -5.083 (log10 mol/L). CC(C)(C)c1ccc(CCC=O)cc1 has MP -10.7 °C and log Kow 3.2 and log S -3.159 (log10 mol/L) and vapor pressure -2.824 (log10 mmHg). The entry for OCCCCCCCCCO lists log Kow 1.69 and vapor pressure -4.469 (log10 mmHg). CC(C)Sc1ncccc1CCC(F)(F)F has MP 24.8 °C and log Kow 3.5 and log S -3.414 (log10 mol/L) and vapor pressure -2.142 (log10 mmHg). C=CCCC(=O)CC1CC2CCC1C2 (stereo not given) is reported with MP -111.6 °C and bp 268.2 °C and log Kow 3.89 and log S -3.682 (log10 mol/L) and vapor pressure -1.878 (log10 mmHg). CCCC(=O)OCCC(C)CCC=C(C)C (stereo not given) has log S -5.143 (log10 mol/L) and vapor pressure -1.202 (log10 mmHg).

FC(F)(Br)CBr is reported with MP -61.3 °C and bp 92.5 °C. Listed for CC(COc1ccccc1)N(CCCl)Cc1ccccc1 (stereo not given): log Kow 4.7 and log S -4.47 (log10 mol/L). Listed for C=C(C)C(=O)NC(C)C: log Kow 0.491 and vapor pressure -1.534 (log10 mmHg). For Cc1ccc2ncccc2c1 the data give fu 0.101 and Clint 134 µL/min/10^6 cells. Cc1c(-c2ccccc2)oc2c(C(=O)OCCN3CCCCC3)cccc2c1=O has log Kow 4.4 and log S -4.405 (log10 mol/L). Nc1cc(S(=O)(=O)O)cc([N+](=O)[O-])c1O has log Kow 0.08 and log S -1.746 (log10 mol/L). The entry for N#CCN(CC#N)CCN(CC#N)CC#N lists log S -2.852 (log10 mol/L) and vapor pressure -5.502 (log10 mmHg).

For CCCCCCCCCc1cc2ccccc2c(S(=O)(=O)[O-])c1CCCCCCCCC.CCCCCCCCCc1cc2ccccc2c(S(=O)(=O)[O-])c1CCCCCCCCC.[Mg+2] the data give log Kow 4.24 and log S -4.652 (log10 mol/L). Listed for CCCOC(C(=O)OC1CCN(C)CC1)(c1ccccc1)c1ccccc1: log S -1.866 (log10 mol/L) and fu 0.1. Listed for CCCCC(CC)COC(=O)C1CCC(C(=O)OCC(CC)CCCC)CC1 (stereo not given): MP -40.7 °C and log S -6.926 (log10 mol/L). The entry for CCCCCN(C)CCC(O)(P(=O)(O)O)P(=O)(O)O lists log Kow -2.1 and log S -1.377 (log10 mol/L). c1cc2c3c(c1)ccc1ccc4cccc-2c4c13 is reported with MP 149 °C and log Kow 7.23. Listed for S=c1[nH]nc(SSc2n[nH]c(=S)s2)s1: MP 164.5 °C and vapor pressure -6.512 (log10 mmHg).

Excerpt, the opening 5 entries:

| SMILES | MP (°C) | bp (°C) | log Kow | log S (log10 mol/L) | vapor pressure (log10 mmHg) | fu | Clint (µL/min/10^6 cells) |
|---|---|---|---|---|---|---|---|
| OCC(Br)=C(Br)CO | n/a | n/a | 0.31 | n/a | -4.288 | n/a | n/a |
| COCCOCCOCCOCCO | -39 | n/a | -0.86 | n/a | -0.974 | n/a | n/a |
| CCCCCCC(O)CO (stereo not given) | n/a | n/a | 2.1 | n/a | -2.813 | n/a | n/a |
| CCN1CCCCCC1=O | -19 | n/a | n/a | n/a | -1.295 | n/a | n/a |
| Nc1c(I)c(C(=O)O)c(I)c(C(=O)NCC(O)CO)c1I (stereo not given) | 163.7 | n/a | -3.7 | n/a | n/a | n/a | n/a |